Measurements: ChEMBL document CHEMBL1127794, “Structure-activity relationships of 1,3-dialkylxanthine derivatives at rat A3 adenosine receptors” (J Med Chem, 1994)

Amino acid sequences for entries named in this document (tags omitted).
UniProt P28647, whole entry: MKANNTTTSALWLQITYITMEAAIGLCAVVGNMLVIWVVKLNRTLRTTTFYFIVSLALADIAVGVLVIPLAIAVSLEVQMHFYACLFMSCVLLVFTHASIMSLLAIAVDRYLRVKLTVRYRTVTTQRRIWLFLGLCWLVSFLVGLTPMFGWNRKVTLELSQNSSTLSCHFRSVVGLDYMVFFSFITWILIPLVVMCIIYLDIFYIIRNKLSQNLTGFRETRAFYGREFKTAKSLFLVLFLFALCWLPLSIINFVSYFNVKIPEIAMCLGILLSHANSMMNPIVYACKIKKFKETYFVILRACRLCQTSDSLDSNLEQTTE

Target: Adenosine receptor A3 (Rattus norvegicus) (UniProt P28647)
Test: Tested for the binding affinity, for displacement of [125I]AB-MECA in membranes of CHO cells stably transfected with the rat A3-cDNA at the 10e-4 concentration (M)
Format: cell membranes

Q: With `Cn1c(=O)c2[nH]cnc2n(C)c1=O` as the compound, how does the inhibition read?
A: The inhibition was 23.1%.
